Results published in ChEMBL document CHEMBL4024754, “Development of Potent, Protease-Resistant Agonists of the Parathyroid Hormone Receptor with Broad β Residue Distribution” (J Med Chem, 2017).
Active and inactive are the calls of the source. The calls are words filed in the database; no cut-off is given here.

By UniProt entry, the sequences of proteins in these tests, tags left out. Where a name states a change or a piece, a line headed by the entry shows the natural chain unless it says otherwise.
UniProt Q03431: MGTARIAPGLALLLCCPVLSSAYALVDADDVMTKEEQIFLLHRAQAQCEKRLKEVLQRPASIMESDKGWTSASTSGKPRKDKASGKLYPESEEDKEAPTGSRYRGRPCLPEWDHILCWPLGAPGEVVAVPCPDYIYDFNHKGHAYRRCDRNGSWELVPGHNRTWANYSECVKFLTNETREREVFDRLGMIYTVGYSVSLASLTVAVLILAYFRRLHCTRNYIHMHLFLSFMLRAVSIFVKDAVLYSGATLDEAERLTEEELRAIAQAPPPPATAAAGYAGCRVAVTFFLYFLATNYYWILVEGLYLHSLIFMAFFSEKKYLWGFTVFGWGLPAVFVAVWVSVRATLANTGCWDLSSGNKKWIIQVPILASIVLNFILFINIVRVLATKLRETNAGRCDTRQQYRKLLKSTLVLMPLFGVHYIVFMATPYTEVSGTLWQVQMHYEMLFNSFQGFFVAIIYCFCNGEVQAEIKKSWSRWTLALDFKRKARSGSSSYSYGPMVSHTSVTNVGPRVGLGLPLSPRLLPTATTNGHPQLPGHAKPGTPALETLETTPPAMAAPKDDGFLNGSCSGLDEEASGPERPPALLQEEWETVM

What was measured:
[1] = target: Parathyroid hormone/parathyroid hormone-related peptide receptor (Homo sapiens) (UniProt Q03431); assay: Displacement of [125I]-PTH(1 to 34 residues) from R0 state of human PTHR1 expressed in African green monkey COS7 cell membranes incubated for >1 hr in presence of GTPgammaS by gamma radiation method
Method in brief: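 Competition binding to R0 state using membranes of Cos-7 cells transiently transfected with human PTHR1. Bound separated by filtration, γ counted.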

[2] = target: Parathyroid hormone/parathyroid hormone-related peptide receptor (Homo sapiens) (UniProt Q03431); assay: Agonist activity at human PTH1 receptor expressed in human GP2.3 cells assessed as induction of cAMP at 0.1 to 100 nM preincubated with simulated gastric fluid for 3 mins followed by compound transfer to GP2.3 cells by luciferase reporter gene assay; format: functional, cell-based
[3] = target: Parathyroid hormone/parathyroid hormone-related peptide receptor (Homo sapiens) (UniProt Q03431); assay: Agonist activity at human PTH1 receptor expressed in human GP2.3 cells assessed as induction of cAMP after 12 to 20 mins by luciferase reporter gene assay relative to PTH(1 to 34 residues)-NH2; format: functional, cell-based
Method in brief: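 HEK293-derived lines stably expressing Glosensor cAMP reporter plus full-length human PTHR1 (GP2.3) or ECD-truncated PTHR1 (GD5). Confluent monolayers preincubated at room temperature in CO2-independent medium with 0.5 mM D-luciferin until baseline stable (30 min), then varied agonist concentrations added. Maximal luminescence (12−20 min) used for sigmoidal variable-slope fits.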

ABALOPARATIDE
inhibition [1]: Active | Activity [2]: Active | fold change (FC) [3]: 0.3
